Data as given in US9475779B2, “Substituted bicyclic dihydropyrimidinones and their use as inhibitors of neutrophil elastase activity” (priority 2014, dated 2016).

The chains behind the UniProt entries cited, without tags or fusion partners. Where a name states a change or a piece, a line headed by the entry shows the natural chain unless it says otherwise.
UniProt P08246: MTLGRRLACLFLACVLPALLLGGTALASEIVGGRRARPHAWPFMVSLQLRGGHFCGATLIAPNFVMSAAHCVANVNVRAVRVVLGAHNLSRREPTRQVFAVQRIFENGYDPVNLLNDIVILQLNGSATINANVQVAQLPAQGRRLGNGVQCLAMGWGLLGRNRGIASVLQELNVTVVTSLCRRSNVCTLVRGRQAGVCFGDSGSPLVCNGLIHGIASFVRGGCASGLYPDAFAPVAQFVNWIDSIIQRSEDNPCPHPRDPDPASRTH

Biological target: neutrophil elastase (Homo sapiens (Human), UniProt P08246)
Experiment: biochemical
Conditions: substrate MeOSuc-Ala-Ala-Pro-Val-AMC

| IC50 (IC50, Neutrophil Elastase assay) [nM] | IC50 (Neutrophil Elastase assay) [nM] | SMILES |
| --- | --- | --- |
| 1.9 | – | CC[S+]([O-])c1cc(C#N)ccc1C1C2=C(CCC2=O)N(c2cccc(C(F)(F)F)c2)C(=O)N1C (single isomer, unassigned) [Example C.5.1, 3-Ethanesulfinyl-4-[3-methyl-2,5-dioxo-1-(3-trifluoromethyl-phenyl)-2,3,4,5,6,7-hexahydro-1H-cyclopentapyrimidin-4-yl]-benzonitrile] |
| – | 1.9 | CC[S+]([O-])c1cc(C#N)ccc1C1C2=C(CCC2=O)N(c2cccc(C(F)(F)F)c2)C(=O)N1C (single isomer, unassigned) [Example C.5.2, 3-Ethanesulfinyl-4-[3-methyl-2,5-dioxo-1-(3-trifluoromethyl-phenyl)-2,3,4,5,6,7-hexahydro-1H-cyclopentapyrimidin-4-yl]-benzonitrile] |
